Earlier results on one substance are cited in patent US11872302B2, “Product for dyeing keratinous material, containing aminosilicone, a chromophoric compound and ester oil” (Henkel AG & Co. KGaA, priority 2019, dated 2024).

The conditions of this series: 25° C.

In the case of “3,4,5,6-tetrachloro-2-(1,4,5,8-tetrabromo-6-hydroxy-3-oxoxanthen-9-yl)benzoic acid [Acid Red 92]”, the solubility in water result is “greater than 10 g/L”.
